Reference: patent publication US20250381254A1, “Augmented Acid Alpha-Glucosidase For The Treatment Of Pompe Disease” (Amicus Therapeutics, Inc., priority 2015, published 2025)

Key:
[1] = target: cation-independent mannose-6-phosphate receptor (CIMPR); assay: cell-based or functional assay
[2] = target: cation-independent mannose-6-phosphate receptor (CIMPR); assay: M6P receptor (CIMPR) plate binding assay
[3] = target: cation-independent mannose-6-phosphate receptor (CIMPR); assay: CIMPR affinity chromatography of different production batches
[4] = target: cation-independent mannose-6-phosphate receptor (CIMPR); assay: CIMPR affinity chromatography, elution with free M6P gradient, fractions read by GAA activity

| Substance | concentration that saturates cellular receptors (fibroblast uptake) [1] [nM] | Kd [2] [nM] | CIMPR receptor binding (percent of rhGAA bound) [3] [%] | uptake efficiency constant (Kuptake), internalisation into normal and Pompe fibroblasts [1] [nM] | percent of rhGAA bound to the CIMPR column (M6P-containing, eluted with M6P) [4] [%] | percent of rhGAA that did not bind to the CIMPR [4] [%] |
| --- | --- | --- | --- | --- | --- | --- |
| ATB200 rhGAA (recombinant human acid α-glucosidase expressed in CHO cell line GA-ATB-200) (from UniProt P10253 57-952) (enzyme) | 20 | 2 to 4 | 70 |  |  |  |
| Lumizyme® (alglucosidase alfa, conventional rhGAA; Genzyme) (from UniProt P10253 57-952) | 250 |  |  | 56 | 22 | 78 |
| Myozyme® (alglucosidase alfa, conventional rhGAA; Genzyme) (from UniProt P10253 57-952) |  |  |  |  | 27 | 73 |
